From patent publication US10442848B2, “Oxyntomodulin derivatives and pharmaceutical composition for treating obesity comprising the same” (HANMI SCIENCE CO., LTD, priority 2011, dated 2019) come the findings set out here.

By UniProt entry, the sequences of proteins in these tests, tags left out. Residues count along the entry.
UniProt P47871, 26-477: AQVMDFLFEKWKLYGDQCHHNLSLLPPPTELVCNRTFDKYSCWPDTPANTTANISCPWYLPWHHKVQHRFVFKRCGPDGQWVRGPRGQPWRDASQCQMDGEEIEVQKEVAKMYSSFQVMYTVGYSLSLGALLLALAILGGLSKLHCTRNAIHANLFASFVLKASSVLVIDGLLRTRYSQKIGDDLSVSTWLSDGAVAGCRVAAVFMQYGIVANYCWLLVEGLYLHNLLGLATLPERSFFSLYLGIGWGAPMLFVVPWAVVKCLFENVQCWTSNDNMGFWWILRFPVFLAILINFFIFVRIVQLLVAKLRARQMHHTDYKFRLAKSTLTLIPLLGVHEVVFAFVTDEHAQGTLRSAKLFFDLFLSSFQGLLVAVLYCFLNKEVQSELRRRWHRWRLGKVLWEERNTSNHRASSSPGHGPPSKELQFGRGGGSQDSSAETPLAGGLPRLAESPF
UniProt P43220, 24-463: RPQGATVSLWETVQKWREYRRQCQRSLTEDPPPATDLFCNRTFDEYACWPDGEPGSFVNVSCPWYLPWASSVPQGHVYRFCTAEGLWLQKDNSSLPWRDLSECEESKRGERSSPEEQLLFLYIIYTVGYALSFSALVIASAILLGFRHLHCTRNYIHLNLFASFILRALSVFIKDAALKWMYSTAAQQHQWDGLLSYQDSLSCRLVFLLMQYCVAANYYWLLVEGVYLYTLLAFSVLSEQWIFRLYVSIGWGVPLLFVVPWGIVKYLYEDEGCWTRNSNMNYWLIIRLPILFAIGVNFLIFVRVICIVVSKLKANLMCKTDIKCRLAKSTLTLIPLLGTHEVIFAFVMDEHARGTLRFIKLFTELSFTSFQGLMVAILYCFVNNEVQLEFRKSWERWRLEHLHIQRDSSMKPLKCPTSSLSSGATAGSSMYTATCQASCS

The test system of assay [1] is ob/ob mouse. Briefly: Changes in food intake in ob/ob mouse. The format is in vivo. The note with it: ob/ob mice fasted for 16 hours, food intake for 2 hours; 1 mg/kg derivative vs 10 mg/kg oxyntomodulin (FIG. 1). How it is done:
In order to measure in vivo therapeutic activity of oxyntomodulin derivatives, changes in food intake by administration of oxyntomodulin derivatives were examined in ob/ob mouse using native oxyntomodulin as a control.
Specifically, obese diabetic ob/ob mice, commonly used to test the efficacies of therapeutic agents for obesity and diabetes, were fasted for 16 hours, and administered with 1 or 10 mg/kg of oxyntomodulin, or 0.02, 0.1, 1 or 10 mg/kg of the oxyntomodulin derivative of SEQ ID NO. 2. Then, food intake was examined for 2 hours (FIG. 1). FIG. 1 is a graph showing changes in food intake according to administration dose of oxyntomodulin or oxyntomodulin derivative.

In assay [2] the target is T1, human glucagon receptor (Homo sapiens, UniProt P47871).
T1 construct: expressed in transfected cells; host or cells: CHO DG44
As to the kind of experiment: cAMP response in CHO cell line expressing human glucagon receptor. The format is cell-based. How it is done: The PCR product was cloned into the known animal cell expression vector x0GC/dhfr to prepare a recombinant vector x0GC/GCGR.
CHO DG44 cell line cultured in DMEM/F12 (10% FBS) medium was transfected with the recombinant vector x0GC/GCGR using LIPOFECTAMINE®, and cultured in a selection medium containing 1 mg/mL G418 and 10 nM methotraxate.
The cultured cells were washed with KRB buffer and suspended in 40 ml of KRB buffer containing 1 mM IBMX, and left at room temperature for 5 minutes. […] Then, 20 mL of cell lysis buffer was added for cell lysis, and the cell lysates were applied to a cAMP assay kit (Molecular Device, USA) to measure cAMP concentrations. EC50 values were calculated therefrom, and compared to each other.

For assay [3], the target named is T2, human GLP-1 receptor (Homo sapiens, UniProt P43220).
T2 construct: PCR was performed using a region corresponding to ORF (Open Reading Frame) in cDNA; expressed in transfected cells; host or cells: CHO DG44
Briefly: cAMP response in CHO cell line expressing human GLP-1 receptor. It counts as cell-based.

For `CC[C@H](C)[C@H](NC(=O)[C@H](CC(N)=O)NC(=O)[C@H](CC(N)=O)NC(=O)[C@H](CCCNC(=N)N)NC(=O)[C@H](CC(N)=O)NC(=O)[C@H](CCCNC(=N)N)NC(=O)[C@H](CCCCN)NC(=O)[C@@H](NC(=O)[C@H](CC(N)=O)NC(=O)[C@H](CCSC)NC(=O)[C@H](CC(C)C)NC(=O)[C@H](Cc1c[nH]c2ccccc12)NC(=O)[C@H](CCC(=O)O)NC(=O)[C@@H](NC(=O)[C@H](Cc1ccccc1)NC(=O)[C@H](CC(C)C)NC(=O)[C@H](CCCNC(=N)N)NC(=O)[C@@H](NC(=O)[C@H](C)NC(=O)[C@H](CCC(=O)O)NC(=O)[C@H](CCC(=O)O)NC(=O)[C@H](CC(=O)O)NC(=O)[C@H](CC(C)C)NC(=O)[C@H](Cc1ccc(O)cc1)NC(=O)[C@H](CCCCN)NC(=O)[C@H](CO)NC(=O)[C@H](Cc1ccc(O)cc1)NC(=O)[C@H](CC(=O)O)NC(=O)[C@H](CO)NC(=O)[C@@H](NC(=O)[C@H](Cc1ccccc1)NC(=O)[C@@H](NC(=O)CNC(=O)[C@H](CCC(N)=O)NC(=O)[C@H](CO)NC(=O)Cc1c[nH]cn1)[C@@H](C)O)[C@@H](C)O)C(C)C)[C@@H](C)CC)[C@@H](C)O)C(=O)N[C@@H](C)C(=O)O` [SEQ ID NO. 2], the “inhibitory effects on food intake” value in assay [1] is listed as “more excellent inhibitory effects on food intake than administration of 10 mg/kg of oxyntomodulin”.

On to `CC[C@H](C)[C@H](NC(=O)[C@H](Cc1ccccc1)NC(=O)[C@H](CC(C)C)NC(=O)[C@H](CCCNC(=N)N)NC(=O)[C@@H](NC(=O)[C@H](C)NC(=O)[C@H](CCC(=O)O)NC(=O)[C@H](CCC(=O)O)NC(=O)[C@H](CCC(=O)O)NC(=O)[C@H](CC(C)C)NC(=O)[C@H](Cc1ccc(O)cc1)NC(=O)[C@H](CCCNC(=N)N)NC(=O)[C@H](CO)NC(=O)[C@H](Cc1ccc(O)cc1)NC(=O)[C@H](CC(=O)O)NC(=O)[C@H](CO)NC(=O)[C@@H](NC(=O)[C@H](Cc1ccccc1)NC(=O)[C@@H](NC(=O)CNC(=O)[C@H](CCC(N)=O)NC(=O)CNC(=O)Cc1c[nH]cn1)[C@@H](C)O)[C@@H](C)O)C(C)C)C(=O)N[C@@H](CCC(=O)O)C(=O)N[C@@H](Cc1c[nH]c2ccccc12)C(=O)N[C@@H](CC(C)C)C(=O)N[C@@H](CCCCN)C(=O)N[C@@H](CC(N)=O)C(=O)NCC(=O)NCC(=O)N1CCC[C@H]1C(=O)N[C@@H](CO)C(=O)N[C@@H](CO)C(=O)NCC(=O)N[C@@H](C)C(=O)N1CCC[C@H]1C(=O)N1CCC[C@H]1C(=O)N1CCC[C@H]1C(=O)N[C@@H](CO)C(=O)O` [SEQ ID NO. 4], for which the figures for the EC50 in assay [2] and in assay [3] were greater than 1000 nM and 5.5 nM, respectively.

Molecule `CC[C@H](C)[C@H](NC(=O)[C@H](Cc1ccccc1)NC(=O)[C@H](CC(C)C)NC(=O)[C@H](CCCNC(=N)N)NC(=O)[C@@H](NC(=O)[C@H](C)NC(=O)[C@H](CCC(=O)O)NC(=O)[C@H](CCC(=O)O)NC(=O)[C@H](CCC(=O)O)NC(=O)[C@H](CCSC)NC(=O)[C@H](CCC(N)=O)NC(=O)[C@H](CCCNC(=N)N)NC(=O)[C@H](CO)NC(=O)[C@H](CC(C)C)NC(=O)[C@H](CC(=O)O)NC(=O)[C@H](CO)NC(=O)[C@@H](NC(=O)[C@H](Cc1ccccc1)NC(=O)[C@@H](NC(=O)CNC(=O)[C@H](CCC(=O)O)NC(=O)CNC(=O)Cc1c[nH]cn1)[C@@H](C)O)[C@@H](C)O)C(C)C)C(=O)N[C@@H](CCC(=O)O)C(=O)N[C@@H](Cc1c[nH]c2ccccc12)C(=O)N[C@@H](C)C(=O)N[C@@H](C)C(=O)N[C@@H](Cc1c[nH]cn1)C(=O)N[C@@H](CO)C(=O)N[C@@H](CCC(N)=O)C(=O)NCC(=O)N[C@H](C(=O)N[C@@H](Cc1ccccc1)C(=O)N[C@H](C(=O)N[C@@H](CO)C(=O)N[C@@H](CC(=O)O)C(=O)N[C@@H](Cc1ccc(O)cc1)C(=O)N[C@@H](CO)C(=O)N[C@@H](CCCCN)C(=O)N[C@@H](Cc1ccc(O)cc1)C(=O)N[C@@H](CC(C)C)C(=O)N[C@@H](CC(=O)O)C(=O)O)[C@@H](C)O)[C@@H](C)O` [SEQ ID NO. 6] displayed an EC50 in assay [2] greater than 1000 nM.

`CC[C@H](C)[C@H](NC(=O)[C@H](Cc1ccccc1)NC(=O)[C@H](CC(C)C)NC(=O)[C@H](CCCNC(=N)N)NC(=O)[C@@H](NC(=O)[C@H](C)NC(=O)[C@H](CCC(=O)O)NC(=O)[C@H](CCC(=O)O)NC(=O)[C@H](CCC(=O)O)NC(=O)[C@H](CC(C)C)NC(=O)[C@H](CCC(N)=O)NC(=O)[C@H](CCCNC(=N)N)NC(=O)[C@H](CO)NC(=O)[C@H](CC(C)C)NC(=O)[C@H](CC(=O)O)NC(=O)[C@H](CO)NC(=O)[C@@H](NC(=O)[C@H](Cc1ccccc1)NC(=O)[C@@H](NC(=O)CNC(=O)[C@H](CCC(N)=O)NC(=O)[C@H](CO)NC(=O)Cc1c[nH]cn1)[C@@H](C)O)[C@@H](C)O)C(C)C)C(=O)N[C@@H](CCC(=O)O)C(=O)N[C@@H](Cc1c[nH]c2ccccc12)C(=O)N[C@@H](CC(C)C)C(=O)N[C@@H](CCSC)C(=O)N[C@@H](CC(N)=O)C(=O)N[C@@H](CCCCN)C(=O)O` [SEQ ID NO. 8] had an EC50 in assay [2] greater than 1000 nM.

As for `CC[C@H](C)[C@H](NC(=O)[C@H](Cc1ccccc1)NC(=O)[C@H](CC(C)C)NC(=O)[C@H](CCCNC(=N)N)NC(=O)[C@@H](NC(=O)[C@H](C)NC(=O)[C@H](CCC(=O)O)NC(=O)[C@H](CCC(=O)O)NC(=O)[C@H](CC(=O)O)NC(=O)[C@H](CC(C)C)NC(=O)[C@H](Cc1ccc(O)cc1)NC(=O)[C@H](CCCNC(=N)N)NC(=O)[C@H](CO)NC(=O)[C@H](Cc1ccc(O)cc1)NC(=O)[C@H](CC(=O)O)NC(=O)[C@H](CO)NC(=O)[C@@H](NC(=O)[C@H](Cc1ccccc1)NC(=O)[C@@H](NC(=O)CNC(=O)[C@H](CCC(N)=O)NC(=O)[C@H](CO)NC(=O)Cc1c[nH]cn1)[C@@H](C)O)[C@@H](C)O)C(C)C)C(=O)N[C@@H](CCC(=O)O)C(=O)N[C@@H](Cc1c[nH]c2ccccc12)C(=O)N[C@H](C(=O)N[C@@H](CCCNC(=N)N)C(=O)N[C@@H](CC(N)=O)C(=O)NCC(=O)NCC(=O)N1CCC[C@H]1C(=O)N[C@@H](CO)C(=O)N[C@@H](CO)C(=O)NCC(=O)N[C@@H](C)C(=O)N1CCC[C@H]1C(=O)N1CCC[C@H]1C(=O)N1CCC[C@H]1C(=O)N[C@@H](CO)C(=O)N[C@@H](CCCCN)C(=O)O)[C@@H](C)CC` [SEQ ID NO. 18], the EC50 in assay [2] is greater than 1000 nM.

A word on the EC50: it is the concentration needed to bring the measured effect to its halfway point. High values mean a need for much substance, low ones an effect from little substance.
